Values of other authors as cited in patent US20240115678A1, “PERSONALIZED […] CANCER THERAPY” (priority 2022, published 2024).

Assays:
[1] = tested on: metastatic colorectal cancer; settings: added to bevacizumab and chemotherapy

| Substance | survival [1] | plasma ascorbate levels recovered (Responders (n=3), Phases 2 and 3) | drop of mean plasma ascorbic acid level (after first phase, high-dose interleukin 2 alone) | mean plasma ascorbic acid level (after first phase, high-dose interleukin 2 alone, 11 advanced cancer patients) | blood pantothenate and plasma vitamin E (all 11 patients, throughout the phases of therapy) | plasma ascorbic acid, undetectable (in eight of 11 patients during remainder of treatment) |
| --- | --- | --- | --- | --- | --- | --- |
| cetuximab: anti-epidermal growth factor receptor (EGFR) monoclonal antibody | decreased survival |  |  |  |  |  |
| interleukin 2: high-dose i.v. interleukin 2, later with autologous lymphokine-activated killer cells |  | at least 0.1 mg/dl | 80% | 0.13 ± 0.08 mg/dL | remained within normal limits | less than 0.05 mg/dl |
